# Reported properties for industrial, environmental and drug-like chemicals

From the experimental data distributed with OPERA 2.9.

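The numbers are reported measurements, compiled and curated for the OPERA QSAR suite. One number stands for a compound and property, with no spread given. How each value was measured is not recorded, so precision varies. A value may pool stereoisomers or salt forms, and the file does not say which form was measured. Some entries may be limits or estimates that an upstream database listed as plain numbers.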

The melting point is given in degrees Celsius.
Boiling points are in °C, nominally at 760 mmHg.
logP is the log10 of the octanol-water partition coefficient; higher is more lipophilic.
Solubility in water is on a log10 molar scale (set defined at 25 °C).
Vapor pressure is log10 of mmHg; the set covers 15 to 30 °C, mostly 20 to 25 °C.
The Henry's law constant is on a log10 scale in atm·m3/mol (set defined at 25 °C); higher favours air over water.
fu is the fraction unbound in human plasma, from 0 to 1.
"n/a" marks a cell with nothing listed here.

CCCCCOC(=O)Nc1nc(=O)n([C@@H]2O[C@H](C)[C@@H](O)[C@H]2O)cc1F [Capecitabine] has logP 0.4 and fraction unbound 0.7. For Cn1cc(C(=O)Nc2ccccc2C2CC2C2CC2)c(C(F)F)n1 (stereo not drawn) [Sedaxane] the data give mp 121 °C and BP 270 °C and vapor pressure -9.312 (log10 mmHg) and log Henry constant -10.4 (log10 atm·m3/mol). Clc1cccc(-c2cc(Cl)c(Cl)c(Cl)c2Cl)c1Cl [2,2',3,3',4,5-Hexachlorobiphenyl] has mp 101 °C and vapor pressure -4.804 (log10 mmHg). Oc1ccc(CCCCNC[C@H](O)c2ccc(O)c(O)c2)cc1 [Arbutamine] has logP 2.9 and water solubility -3.576 (log10 mol/L).

For Cc1ccc(C(N)=O)c(O)c1 [4-Methylsalicylamide] the data give mp 183 °C and water solubility -2.917 (log10 mol/L) and vapor pressure -6.072 (log10 mmHg). Listed for CCCCCC(CO)Cc1ccccc1 (stereo not drawn) [Benzenepropanol, .beta.-pentyl-]: logP 4 and water solubility -3.843 (log10 mol/L) and vapor pressure -1.202 (log10 mmHg). Listed for CCN(CC)c1ccc(N=Nc2c(C#N)cc(C)cc2C#N)c(NS(C)(=O)=O)c1: mp 210.9 °C and logP 3.7 and water solubility -7.233 (log10 mol/L) and vapor pressure -6.417 (log10 mmHg). For CC(C)(O)CCCC1=CCC(C=O)CC1 (stereo not drawn) [4-(4-Hydroxy-4-methylpentyl)cyclohex-3-ene-1-carbaldehyde] the data give logP 2.1 and vapor pressure -4.067 (log10 mmHg).

The entry for Cc1ccc(C(C)(C)C)c(O)c1 [2-Tert-Butyl-5-methylphenol] lists logP 4.11 and water solubility -2.673 (log10 mol/L) and vapor pressure -1.648 (log10 mmHg). The entry for CC(C)(C(=O)O)c1ccc(C#CCCN2CCC(C(O)(c3ccccc3)c3ccccc3)CC2)cc1 lists mp 179 °C and logP 5 and water solubility -4.179 (log10 mol/L). CNC1(C)C2CCC(C2)C1(C)C (stereo not drawn) [Mecamylamine] has logP 2.7 and water solubility -3.13 (log10 mol/L). For CCCCCCCCCCCCCC[N+](C)(C)C.CCCCCCCCCCCCCC[N+](C)(C)C.O=C([O-])C(=O)[O-] [Bis(N,N,N-trimethyl-1-tetradecanaminium) ethanedioate] the data give logP 2.6 and water solubility -2.898 (log10 mol/L) and vapor pressure -7.476 (log10 mmHg).

CC(C)(C=NCC1(C)CC(N=CC(C)(C)CN2CCOCC2)CC(C)(C)C1)CN1CCOCC1 (stereo not drawn) is reported with mp 45.7 °C and BP 288 °C and logP 2.1 and vapor pressure -4.245 (log10 mmHg). CCCCCCCC(=O)OCC(C)(C)COC(=O)CCCCCCC [Neopentyl glycol dicaprylate] is reported with mp -54 °C and logP 7.66. C=Cc1ccc(C(C)(C)C)cc1 [4-tert-Butylstyrene] has BP 218.9 °C and logP 4.73. Cc1cc(CC(C)C)ccc1CCC=O [3-(4-Isobutyl-2-methylphenyl)propanal] is reported with BP 284 °C and water solubility -3.921 (log10 mol/L).

CCCCC(CC)CNC(=O)c1ccc(N=Nc2c(C)c(C#N)c(=O)n(C)c2O)cc1 (stereo not drawn) has mp 182.3 °C and logP 4.7 and water solubility -7.025 (log10 mol/L). CCCCCCCCCCCCCCCCCCCCCC(=O)OCCCCCCCCCCCCCCCCCC [Octadecyl docosanoate List Acronyms] has water solubility -8.072 (log10 mol/L) and vapor pressure -4.292 (log10 mmHg). For CCCCCCCCCCCCCC(=O)NC(CCC(=O)O)C(=O)[O-].[K+] (stereo not drawn) [Potassium myristoyl glutamate] the data give mp 201.9 °C and logP 3.74. The entry for CC1(C)OCC(CO)O1 (stereo not drawn) [Solketal] lists mp -38.5 °C and logP -0.6.

For CCCCOP(C)(=O)CCC(C#N)OC(C)=O (stereo not drawn) the data give mp -62.7 °C and logP 1.2.

Excerpt, the final 2 entries:

compound	name	mp (°C)	BP (°C)	logP	water solubility (log10 mol/L)	vapor pressure (log10 mmHg)	log Henry constant (log10 atm·m3/mol)	fraction unbound
CC1(C)OCC(CO)O1 (stereo not drawn)	Solketal	-38.5	n/a	-0.6	n/a	n/a	n/a	n/a
CCCCOP(C)(=O)CCC(C#N)OC(C)=O (stereo not drawn)	n/a	-62.7	n/a	1.2	n/a	n/a	n/a	n/a